In ChEMBL document CHEMBL4421732, “Use of small molecule inhibitors targeting EYA tyrosine phosphatase” (2017) one finds Ratio IC50 data, which are given here for one compound.

The assay is filed under the species Homo sapiens. The assay can be described thus: Selectivity index, ratio of IC50 for inhibition of PTP1B (unknown origin) using para-nitrophenol phosphate substrate incubated for 30 mins to IC50 for inhibition of poly-histidine and GST-tagged full length human Eya3 isoform 2 (127 to 573 residues) using para-nitrophenol phosphate substrate incubated for 30 mins.

`CCc1oc2ccccc2c1C(=O)c1cc(Br)c(O)c(Br)c1`: the Ratio IC50 was in the range of 4.7 to 6.5.
